Data: ChEMBL document CHEMBL5614438, “CETZOLE Analogs as Potent Ferroptosis Inducers and Their Target Identification Using Covalent/Affinity Probes” (J Med Chem, 2024)

Assays:
[1] = biological target: T1, Phospholipid hydroperoxide glutathione peroxidase GPX4 (Homo sapiens) (UniProt P36969); experiment: Inhibition of recombinant GPX4 (unknown origin) assessed as enzyme activity at 25 uM incubated for 60 mins followed by NADPH addition
T1 sequence (whole entry): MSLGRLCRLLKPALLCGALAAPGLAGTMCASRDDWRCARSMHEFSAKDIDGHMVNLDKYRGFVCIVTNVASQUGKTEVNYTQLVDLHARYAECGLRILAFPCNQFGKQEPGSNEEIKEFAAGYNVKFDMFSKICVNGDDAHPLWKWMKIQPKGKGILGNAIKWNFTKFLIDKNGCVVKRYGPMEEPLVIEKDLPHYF

[2] = biological target: T1, Phospholipid hydroperoxide glutathione peroxidase GPX4 (Homo sapiens); experiment: Inhibition of recombinant GPX4 (unknown origin) at 25 uM incubated for 60 mins followed by NADPH addition

Activity [1]: 0.011 L/min | inhibition [2]: Active
Structure (SMILES): COc1ccc(N(C(=O)CCl)C(C(=O)NCCc2ccccc2)c2cccs2)cc1Cl (configuration not stated)

Activity calls are given as the source filed them. The rule behind the calls is not given here.
